Legend:
D(2) dopamine receptor = D(2) dopamine receptor (Rattus norvegicus, UniProt P61169); assay: Inhibition of [125I]- NCQ 298 binding to D2 receptor of rat striatal tissue; assay type: tissue-based, Striatum
[1] = Partition coefficient (logP); assay type: physicochemical; conditions: octanol/water

Sequences of proteins named here, by UniProt entry; tags and fusion partners are left off.
UniProt P61169, whole entry: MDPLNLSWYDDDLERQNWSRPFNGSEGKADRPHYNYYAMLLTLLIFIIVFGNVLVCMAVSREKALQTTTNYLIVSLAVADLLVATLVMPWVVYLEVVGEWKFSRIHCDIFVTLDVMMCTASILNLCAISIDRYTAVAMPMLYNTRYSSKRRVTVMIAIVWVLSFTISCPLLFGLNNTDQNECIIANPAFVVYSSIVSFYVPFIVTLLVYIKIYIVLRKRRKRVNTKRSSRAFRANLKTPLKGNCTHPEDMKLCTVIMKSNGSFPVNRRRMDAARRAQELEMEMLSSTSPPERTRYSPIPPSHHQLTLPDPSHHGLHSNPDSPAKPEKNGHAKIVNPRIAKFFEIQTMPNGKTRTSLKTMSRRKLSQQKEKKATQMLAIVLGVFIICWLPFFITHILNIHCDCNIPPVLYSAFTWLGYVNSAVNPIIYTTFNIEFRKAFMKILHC

Ki (D(2) dopamine receptor)	logP [1]	Structure (SMILES)
0.95 nM	2.98	COc1cc(N)c(Cl)cc1C(=O)NC1CCN(Cc2ccc(F)cc2)CC1
–	4	COc1cc(Br)cc(C(=O)NC2CCN(Cc3ccc(F)cc3)CC2)c1OC
–	3.87	COc1cc(Br)cc(C(=O)NC2CC3CCCC(C2)N3Cc2ccc(F)cc2)c1OC (centres undefined)

— ChEMBL document CHEMBL1126910, “18F-labeled benzamides for studying the dopamine D2 receptor with positron emission tomography” (J Med Chem, 1993)
